Measured values: PubChem BioAssay AID463212 (Sanford-Burnham Center for Chemical Genomics, 2010)
The list shows a part of the results, in another mix than the full data. Activity calls are given as the source filed them.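 Rule for the calls: active = growth inhibition of the mutant yeast at or above 50%; inactive = the rest.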

Test: growth inhibitors of tim23-1 mutant yeast, primary screen, luminescence, uHTS (AID 463212);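 note: temperature-sensitive mutant grown at 25 °C; plate controls were DMSO-treated mutant yeast for no effect and medium wells lacking yeast for full effect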
Conditions: S. cerevisiae tim23-1 growth, BacTiter-Glo luminescence, 24 h; at 20 µM; hits give high values

Compound | inhibition
COc1ccc(OP(C)(=O)Nc2ccccn2)cc1 (stereo unspecified) | inactive: 8.04%
